The values below are quoted from earlier work in patent US10201528B2, “Method of treating multiple sclerosis” (Assistance Publique Hopitaux De Paris, priority 2012, dated 2019).

This data set has as its system multiple sclerosis. Particulars: attacks less numerous and less severe, improvement of lesions visible by MRI; cited from earlier work.

B1: Interferon beta: interferon treatment for remitting MS (protein, UniProt P01574 22-187, looked up)
Interferon beta: MSYNLLGFLQRSSNFQCQKLLWQLNGRLEYCLKDRMNFDIPEEIKQLQQFQKEDAALTIYEMLQNIFAIFRQDSSSTGWNETIVENLLANVYHQINHLKTVLEEKLEKEDFTRGKLMSSLHLKRYYGRILHYLKAKEYSHCAWTIVRVEILRNFYFINRLTGYLRN
Take B1: the “efficacy in multiple sclerosis” value was “proven to be effective”.
